Measured values taken from patent US12122848B2, “Compositions and methods for treating fibroids” (THE LUNDQUIST INSTITUTE FOR BIOMEDICAL INNOVATION AT …, priority 2020, dated 2024).

Columns and labels:
Assay type in all cases: cell-based, human
LSMC spheroids = assay: Immunoblotting of ECM and inflammation proteins in LSMC spheroids after inhibitor treatment; details: Example 3, 48 hours, different concentrations
Procedure: (§1) Total protein isolated from paired tissue samples and MSMC and LSMC spheroids following treatment conditions was subjected to immunoblotting. Briefly, samples were suspended in RIPA buffer containing 1 mM EDTA and EGTA (Boston BioProducts, Ashland, MA) supplemented with 1 mM PMSF and a complete protease inhibitor mixture (Roche Diagnostics, Indianapolis, IN), sonicated, and centrifuged at 4° C. for 10 min at 14,000 rpm. The concentration of protein was determined using the BCA™ Protein Assay Kit (Thermo Scientific Pierce, Rockford, IL). Equal aliquots (thirty micrograms) of total protein for each sample was denatured with SDS-PAGE sample buffer and separated by electrophoresis on a SDS polyacrylamide gel. After transferring the samples to a nitrocellulose membrane, the membrane was blocked with TBS-Tween+5% milk and probed with the following primary antibodies: IDO1 (Cell Signaling Technology, Danvers, MA), TDO2, COL3A1 (Proteintech Group, Inc, Chicago, Illinois) and COL1A1 (Fitzgerald Industries Intl, Acton, MA). The membranes were washed with TBS containing 0.1% Tween-20 wash buffer after each antibody incubation cycle. SuperSignal West Pico Chemiluminescent Substrate™ (Thermo Scientific Pierce) was used for detection, and photographic emulsion was used to identify the protein bands, which were subsequently quantified by densitometry. The membranes were also stripped and probed with glyceraldehyde 3-phosphate dehydrogenase (GAPDH) antibody (Santa Cruz Biotechnology, Santa Cruz, CA) serving as the loading control. The densities of the specific protein bands were determined using image J program (imagej.nih.gov/ij/), normalized to GAPDH or a band obtained from staining the membrane with Ponceau S. Results were expressed as means±SEM as a ratio relative to the control group designated as 1.
(§2) Isolated MSMC and LSMC were plated in 6-well (1×10^5 cells/well) or 96-well (5×10^3 cells/well) plates which were coated with 0.5% agarose gel and incubated 48 hours for spheroids formation.

[1] = tested on: LSMC (leiomyoma smooth muscle cells) spheroids; assay: Cell proliferation in LSMC spheroids, CellTiter-Glo 3D Cell Viability Assay
Procedure: as §2
(§3) The concentrations of inhibitors used was based on earlier studies and the cell proliferation was determined using the CellTiter-Glo 3D Cell Viability Assay (Promega, Madison, WI) according to the manufacturer's protocol. The assay was performed in six replicates per condition and repeated four times using cells isolated from four different patients.

MSMC spheroids = assay: Immunoblotting of COL1A1 and COL3A1 in MSMC spheroids after inhibitor treatment; details: Example 3, 48 hours, different concentrations
Procedure: as §1, §2

[2] = tested on: MSMC (myometrial smooth muscle cells) spheroids; assay: Cell proliferation in MSMC spheroids, CellTiter-Glo 3D Cell Viability Assay
Procedure: as §2, §3

[3] = Example 3, various concentrations, 48 hours, n=4

## NS(=O)(=O)NCCNc1nonc1/C(=N/O)Nc1ccc(F)c(Br)c1 [Epacadostat]
LSMC spheroids
  expression of COL1A1: but not
  expression of COL3A1: but not
LSMC spheroids; listed as Epacodostat
  expression of COL1A1: did not have any effect
  expression of COL3A1: did not have any effect
[1]; Example 2
  cell proliferation: significantly suppressed
[1]; [3]
  spheroids cell proliferation: no effect
MSMC spheroids
  expression of COL1A1: but not
  expression of COL3A1: but not
MSMC spheroids; listed as Epacodostat
  expression of COL1A1: did not have any effect
  expression of COL3A1: did not have any effect
[2]; Example 2
  cell proliferation: significantly suppressed
[2]; [3]
  spheroids cell proliferation: no effect
